By UniProt entry, the sequences of proteins in these tests, tags left out.
UniProt Q04206, whole entry: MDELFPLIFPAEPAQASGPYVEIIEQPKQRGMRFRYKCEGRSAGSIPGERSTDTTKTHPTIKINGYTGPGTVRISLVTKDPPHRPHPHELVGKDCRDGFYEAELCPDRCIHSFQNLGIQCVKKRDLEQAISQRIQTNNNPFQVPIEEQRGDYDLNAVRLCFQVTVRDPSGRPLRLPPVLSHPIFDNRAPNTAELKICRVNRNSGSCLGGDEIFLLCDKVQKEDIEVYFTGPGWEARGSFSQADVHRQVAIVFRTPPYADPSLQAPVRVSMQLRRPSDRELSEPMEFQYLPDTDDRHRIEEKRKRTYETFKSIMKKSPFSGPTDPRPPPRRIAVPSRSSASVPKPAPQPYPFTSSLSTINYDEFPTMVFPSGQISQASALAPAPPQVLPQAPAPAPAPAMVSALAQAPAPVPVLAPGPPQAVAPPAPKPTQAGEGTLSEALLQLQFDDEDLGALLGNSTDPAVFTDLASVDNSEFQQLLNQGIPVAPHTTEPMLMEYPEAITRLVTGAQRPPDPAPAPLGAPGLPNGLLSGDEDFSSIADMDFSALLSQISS

In ChEMBL document CHEMBL4339224, “Identification of a Strigoterpenoid with Dual Nrf2 and Nf-κB Modulatory Activity” (ACS Med Chem Lett, 2019):

Columns and labels:
Assay type in all cases: cell-based
Homo sapiens [1] = organism: Homo sapiens; test: Inhibition of NF-kappaB (unknown origin) expressed in HEK293T cells co-transfected with the NF-kappaB-Luc plasmid and IKKbeta-HA assessed as reduction in IKKbeta-induced NF-kappaB activation at 0.1 to 50 uM by luciferase reporter gene assay
[2] = target: Transcription factor p65 (Homo sapiens) (UniProt Q04206); test: Inhibition of TNFalpha-induced NFkappaB (unknown origin) canonical pathway expressed in mouse NIH3T3-KBF-Luc cells assessed as p65 phosphorylation level at 10 uM pre-incubated for 15 mins before TNFalpha stimulation for 6 hrs by Western blot analysis relative to untreated control
[3] = target: Transcription factor p65 (Homo sapiens) (UniProt Q04206); test: Inhibition of TNFalpha-induced NFkappaB (unknown origin) canonical pathway expressed in mouse NIH3T3-KBF-Luc cells assessed as p65 phosphorylation level at 5 uM pre-incubated for 15 mins before TNFalpha stimulation for 6 hrs by Western blot analysis relative to untreated control
[4] = target: Transcription factor p65 (Homo sapiens) (UniProt Q04206); test: Inhibition of TNFalpha-induced NFkappaB (unknown origin) canonical pathway expressed in mouse NIH3T3-KBF-Luc cells assessed as p65 phosphorylation level at 0.1 uM pre-incubated for 15 mins before TNFalpha stimulation for 6 hrs by Western blot analysis relative to untreated control
[5] = target: Transcription factor p65 (Homo sapiens) (UniProt Q04206); test: Inhibition of TNFalpha-induced NFkappaB (unknown origin) canonical pathway expressed in mouse NIH3T3-KBF-Luc cells assessed as p65 phosphorylation level at 50 uM pre-incubated for 15 mins before TNFalpha stimulation for 6 hrs by Western blot analysis relative to untreated control
Homo sapiens [6] = organism: Homo sapiens; test: Inhibition of TNFalpha-induced NFkappaB (unknown origin) canonical pathway expressed in mouse NIH3T3-KBF-Luc cells assessed as IkappaB-alpha phosphorylation level at 5 uM pre-incubated for 15 mins before TNFalpha stimulation for 6 hrs by Western blot analysis relative to untreated control
Homo sapiens [7] = organism: Homo sapiens; test: Inhibition of TNFalpha-induced NFkappaB (unknown origin) canonical pathway expressed in mouse NIH3T3-KBF-Luc cells assessed as IkappaB-alpha phosphorylation level at 50 uM pre-incubated for 15 mins before TNFalpha stimulation for 6 hrs by Western blot analysis relative to untreated control
Homo sapiens [8] = organism: Homo sapiens; test: Inhibition of TNFalpha-induced NFkappaB (unknown origin) canonical pathway expressed in mouse NIH3T3-KBF-Luc cells assessed as IkappaB-alpha phosphorylation level at 10 uM pre-incubated for 15 mins before TNFalpha stimulation for 6 hrs by Western blot analysis relative to untreated control
[9] = target: Transcription factor p65 (Homo sapiens) (UniProt Q04206); test: Inhibition of TNFalpha-induced NFkappaB (unknown origin) canonical pathway expressed in mouse NIH3T3-KBF-Luc cells assessed as p65 phosphorylation level at 25 uM pre-incubated for 15 mins before TNFalpha stimulation for 6 hrs by Western blot analysis relative to untreated control
Homo sapiens [10] = organism: Homo sapiens; test: Inhibition of TNFalpha-induced NFkappaB (unknown origin) canonical pathway expressed in mouse NIH3T3-KBF-Luc cells assessed as IkappaB-alpha phosphorylation level at 1 uM pre-incubated for 15 mins before TNFalpha stimulation for 6 hrs by Western blot analysis relative to untreated control
Homo sapiens [11] = organism: Homo sapiens; test: Inhibition of TNFalpha-induced NFkappaB (unknown origin) canonical pathway expressed in mouse NIH3T3-KBF-Luc cells assessed as IkappaB-alpha phosphorylation level at 25 uM pre-incubated for 15 mins before TNFalpha stimulation for 6 hrs by Western blot analysis relative to untreated control
Homo sapiens [12] = organism: Homo sapiens; test: Inhibition of TNFalpha-induced NFkappaB (unknown origin) canonical pathway expressed in mouse NIH3T3-KBF-Luc cells assessed as IkappaB-alpha phosphorylation level at 0.1 uM pre-incubated for 15 mins before TNFalpha stimulation for 6 hrs by Western blot analysis relative to untreated control

- fold change (FC) [2]: 5.1
- fold change (FC) [3]: 6
- fold change (FC) [4]: 3.2
- fold change (FC) [5]: 1.1
- fold change (FC) [9]: 2.4
SMILES: CC1=CC(O/C=C2\C[C@]3(C)C(COc4ccc5ccc(=O)oc5c4)[C@](C)(O)CC[C@H]3C(C)(C)C2=O)OC1=O (some centres not stated)
- fold change (FC) (Homo sapiens [1]): 1
- fold change (FC) (Homo sapiens [6]): 5.8
- fold change (FC) (Homo sapiens [7]): 0.9
- fold change (FC) (Homo sapiens [8]): 2.5
- fold change (FC) (Homo sapiens [10]): 4.9
- fold change (FC) (Homo sapiens [11]): 0.4
- fold change (FC) (Homo sapiens [12]): 4.8
